Experimental findings from the supplement of paper PMC11403291 are described below.

Amino acid sequences for entries named in this document (tags omitted). A change or cut given only in a name is not applied to a line headed by its entry.
UniProt P07332: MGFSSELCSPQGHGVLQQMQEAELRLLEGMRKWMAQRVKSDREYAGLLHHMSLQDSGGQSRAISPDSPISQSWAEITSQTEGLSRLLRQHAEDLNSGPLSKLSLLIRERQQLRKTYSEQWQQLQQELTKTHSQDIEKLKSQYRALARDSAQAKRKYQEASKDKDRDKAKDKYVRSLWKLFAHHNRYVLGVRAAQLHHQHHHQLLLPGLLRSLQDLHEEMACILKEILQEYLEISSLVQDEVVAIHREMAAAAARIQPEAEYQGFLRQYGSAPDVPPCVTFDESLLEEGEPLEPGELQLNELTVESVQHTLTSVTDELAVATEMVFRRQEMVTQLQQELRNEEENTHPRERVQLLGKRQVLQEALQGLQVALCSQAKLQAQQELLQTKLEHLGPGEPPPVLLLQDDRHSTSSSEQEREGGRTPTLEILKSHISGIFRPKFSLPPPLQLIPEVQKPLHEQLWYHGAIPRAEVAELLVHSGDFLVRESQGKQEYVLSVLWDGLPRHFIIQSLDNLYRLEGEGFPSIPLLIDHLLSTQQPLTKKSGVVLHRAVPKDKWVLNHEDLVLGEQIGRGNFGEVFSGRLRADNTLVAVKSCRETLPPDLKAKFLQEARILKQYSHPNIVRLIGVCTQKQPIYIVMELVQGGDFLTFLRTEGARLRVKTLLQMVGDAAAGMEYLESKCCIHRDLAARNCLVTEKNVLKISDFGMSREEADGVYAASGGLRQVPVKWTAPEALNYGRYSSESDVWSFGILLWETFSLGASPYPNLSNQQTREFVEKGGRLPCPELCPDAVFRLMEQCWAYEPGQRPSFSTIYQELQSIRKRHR
UniProt P49840: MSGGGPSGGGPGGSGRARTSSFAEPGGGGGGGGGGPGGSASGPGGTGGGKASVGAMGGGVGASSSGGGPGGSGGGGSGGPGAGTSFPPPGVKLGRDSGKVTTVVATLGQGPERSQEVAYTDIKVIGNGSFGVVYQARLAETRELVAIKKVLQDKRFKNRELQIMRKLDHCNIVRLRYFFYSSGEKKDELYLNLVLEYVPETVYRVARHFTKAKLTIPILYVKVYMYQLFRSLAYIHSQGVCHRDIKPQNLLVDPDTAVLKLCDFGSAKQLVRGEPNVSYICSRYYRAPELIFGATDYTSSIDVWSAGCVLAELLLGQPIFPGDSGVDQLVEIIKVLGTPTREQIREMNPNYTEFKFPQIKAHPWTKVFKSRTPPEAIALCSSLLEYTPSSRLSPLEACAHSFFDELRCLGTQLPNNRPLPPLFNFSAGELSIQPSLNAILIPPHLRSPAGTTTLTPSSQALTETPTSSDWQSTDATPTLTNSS
UniProt Q5TCX8: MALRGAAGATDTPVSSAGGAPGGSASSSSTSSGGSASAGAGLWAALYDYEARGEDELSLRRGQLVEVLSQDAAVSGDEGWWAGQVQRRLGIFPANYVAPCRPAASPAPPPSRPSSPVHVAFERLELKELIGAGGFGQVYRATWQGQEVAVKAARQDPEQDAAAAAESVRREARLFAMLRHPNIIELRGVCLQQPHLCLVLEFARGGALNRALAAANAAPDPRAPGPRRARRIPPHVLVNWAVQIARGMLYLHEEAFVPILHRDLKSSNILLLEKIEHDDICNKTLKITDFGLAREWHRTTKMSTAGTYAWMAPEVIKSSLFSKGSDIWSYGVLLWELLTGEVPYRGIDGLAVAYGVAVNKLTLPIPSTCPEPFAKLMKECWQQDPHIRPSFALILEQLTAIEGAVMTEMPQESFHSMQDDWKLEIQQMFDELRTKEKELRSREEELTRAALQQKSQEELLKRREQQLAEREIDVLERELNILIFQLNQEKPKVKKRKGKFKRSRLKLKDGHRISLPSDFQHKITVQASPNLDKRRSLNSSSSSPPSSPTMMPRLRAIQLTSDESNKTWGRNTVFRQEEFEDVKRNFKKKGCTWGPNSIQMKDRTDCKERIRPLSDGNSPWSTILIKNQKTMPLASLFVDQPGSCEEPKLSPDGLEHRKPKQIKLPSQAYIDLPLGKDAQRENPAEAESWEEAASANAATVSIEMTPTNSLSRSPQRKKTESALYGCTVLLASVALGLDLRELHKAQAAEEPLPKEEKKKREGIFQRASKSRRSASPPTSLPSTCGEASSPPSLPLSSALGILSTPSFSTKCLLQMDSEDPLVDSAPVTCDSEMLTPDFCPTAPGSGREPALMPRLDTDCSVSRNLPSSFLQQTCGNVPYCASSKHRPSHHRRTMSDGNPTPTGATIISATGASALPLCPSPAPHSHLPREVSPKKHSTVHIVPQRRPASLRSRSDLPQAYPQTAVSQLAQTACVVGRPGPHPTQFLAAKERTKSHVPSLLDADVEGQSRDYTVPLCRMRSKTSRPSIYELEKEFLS
UniProt Q16584: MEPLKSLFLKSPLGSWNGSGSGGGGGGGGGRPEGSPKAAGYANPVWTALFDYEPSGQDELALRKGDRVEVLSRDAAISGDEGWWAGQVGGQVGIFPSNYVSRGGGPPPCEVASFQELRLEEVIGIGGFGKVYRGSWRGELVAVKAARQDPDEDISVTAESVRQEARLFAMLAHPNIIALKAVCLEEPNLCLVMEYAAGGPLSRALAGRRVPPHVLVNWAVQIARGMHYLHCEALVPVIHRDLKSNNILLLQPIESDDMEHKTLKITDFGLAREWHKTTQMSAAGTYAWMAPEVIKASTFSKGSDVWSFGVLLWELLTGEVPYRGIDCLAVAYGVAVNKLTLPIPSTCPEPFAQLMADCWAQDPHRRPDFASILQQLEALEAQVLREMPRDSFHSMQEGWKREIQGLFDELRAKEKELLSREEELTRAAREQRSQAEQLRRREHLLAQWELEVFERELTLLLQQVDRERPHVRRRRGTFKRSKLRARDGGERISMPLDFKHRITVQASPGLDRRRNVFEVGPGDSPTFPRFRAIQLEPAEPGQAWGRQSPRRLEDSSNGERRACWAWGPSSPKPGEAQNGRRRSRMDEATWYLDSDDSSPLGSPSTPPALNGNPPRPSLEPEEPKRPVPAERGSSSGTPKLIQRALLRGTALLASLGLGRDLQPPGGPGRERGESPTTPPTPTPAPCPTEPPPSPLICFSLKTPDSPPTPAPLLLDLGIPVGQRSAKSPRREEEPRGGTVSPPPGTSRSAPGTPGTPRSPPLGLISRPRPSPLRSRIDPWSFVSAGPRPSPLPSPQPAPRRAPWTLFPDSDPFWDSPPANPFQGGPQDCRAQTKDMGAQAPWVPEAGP
UniProt O95819: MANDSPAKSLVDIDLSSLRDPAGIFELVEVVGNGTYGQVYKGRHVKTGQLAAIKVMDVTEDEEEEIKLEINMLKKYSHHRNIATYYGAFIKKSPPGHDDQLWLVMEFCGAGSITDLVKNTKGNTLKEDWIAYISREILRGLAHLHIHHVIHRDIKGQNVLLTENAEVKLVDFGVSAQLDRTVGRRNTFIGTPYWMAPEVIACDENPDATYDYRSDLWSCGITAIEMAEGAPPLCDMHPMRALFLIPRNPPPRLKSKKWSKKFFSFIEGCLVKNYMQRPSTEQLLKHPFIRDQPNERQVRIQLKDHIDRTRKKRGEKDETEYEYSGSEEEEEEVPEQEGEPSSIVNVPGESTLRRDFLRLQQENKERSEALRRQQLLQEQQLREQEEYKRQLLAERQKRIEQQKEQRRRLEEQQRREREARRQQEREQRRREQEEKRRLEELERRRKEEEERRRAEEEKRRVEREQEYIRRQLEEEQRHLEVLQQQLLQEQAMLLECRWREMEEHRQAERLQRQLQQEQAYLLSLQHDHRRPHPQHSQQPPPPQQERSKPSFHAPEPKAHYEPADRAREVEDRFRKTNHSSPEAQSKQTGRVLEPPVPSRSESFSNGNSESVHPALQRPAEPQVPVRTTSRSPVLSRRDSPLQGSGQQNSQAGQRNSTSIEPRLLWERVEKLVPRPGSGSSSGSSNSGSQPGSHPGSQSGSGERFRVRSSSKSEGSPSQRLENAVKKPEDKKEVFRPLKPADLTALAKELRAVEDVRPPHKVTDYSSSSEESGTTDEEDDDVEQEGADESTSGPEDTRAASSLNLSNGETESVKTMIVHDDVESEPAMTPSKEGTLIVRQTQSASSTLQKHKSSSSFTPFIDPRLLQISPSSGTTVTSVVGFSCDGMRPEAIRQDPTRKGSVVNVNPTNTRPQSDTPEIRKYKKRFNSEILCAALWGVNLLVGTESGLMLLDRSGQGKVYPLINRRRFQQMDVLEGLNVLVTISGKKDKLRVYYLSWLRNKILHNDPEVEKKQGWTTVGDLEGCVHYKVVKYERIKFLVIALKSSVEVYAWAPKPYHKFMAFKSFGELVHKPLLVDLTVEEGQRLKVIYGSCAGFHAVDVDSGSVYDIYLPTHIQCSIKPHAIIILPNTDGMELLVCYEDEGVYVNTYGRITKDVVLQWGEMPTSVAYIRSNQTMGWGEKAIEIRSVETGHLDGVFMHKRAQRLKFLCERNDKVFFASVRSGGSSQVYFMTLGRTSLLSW
UniProt P28482, whole entry: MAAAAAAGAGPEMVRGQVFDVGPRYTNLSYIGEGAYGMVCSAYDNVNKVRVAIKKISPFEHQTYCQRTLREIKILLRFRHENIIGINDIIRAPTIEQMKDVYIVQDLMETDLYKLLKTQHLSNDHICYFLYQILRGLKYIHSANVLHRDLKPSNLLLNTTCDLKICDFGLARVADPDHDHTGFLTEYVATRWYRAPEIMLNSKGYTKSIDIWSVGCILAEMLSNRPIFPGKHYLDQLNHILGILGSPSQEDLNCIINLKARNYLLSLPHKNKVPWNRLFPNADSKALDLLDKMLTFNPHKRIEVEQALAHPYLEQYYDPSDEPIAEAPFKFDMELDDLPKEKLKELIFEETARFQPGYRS
UniProt Q05397, whole entry, looked up: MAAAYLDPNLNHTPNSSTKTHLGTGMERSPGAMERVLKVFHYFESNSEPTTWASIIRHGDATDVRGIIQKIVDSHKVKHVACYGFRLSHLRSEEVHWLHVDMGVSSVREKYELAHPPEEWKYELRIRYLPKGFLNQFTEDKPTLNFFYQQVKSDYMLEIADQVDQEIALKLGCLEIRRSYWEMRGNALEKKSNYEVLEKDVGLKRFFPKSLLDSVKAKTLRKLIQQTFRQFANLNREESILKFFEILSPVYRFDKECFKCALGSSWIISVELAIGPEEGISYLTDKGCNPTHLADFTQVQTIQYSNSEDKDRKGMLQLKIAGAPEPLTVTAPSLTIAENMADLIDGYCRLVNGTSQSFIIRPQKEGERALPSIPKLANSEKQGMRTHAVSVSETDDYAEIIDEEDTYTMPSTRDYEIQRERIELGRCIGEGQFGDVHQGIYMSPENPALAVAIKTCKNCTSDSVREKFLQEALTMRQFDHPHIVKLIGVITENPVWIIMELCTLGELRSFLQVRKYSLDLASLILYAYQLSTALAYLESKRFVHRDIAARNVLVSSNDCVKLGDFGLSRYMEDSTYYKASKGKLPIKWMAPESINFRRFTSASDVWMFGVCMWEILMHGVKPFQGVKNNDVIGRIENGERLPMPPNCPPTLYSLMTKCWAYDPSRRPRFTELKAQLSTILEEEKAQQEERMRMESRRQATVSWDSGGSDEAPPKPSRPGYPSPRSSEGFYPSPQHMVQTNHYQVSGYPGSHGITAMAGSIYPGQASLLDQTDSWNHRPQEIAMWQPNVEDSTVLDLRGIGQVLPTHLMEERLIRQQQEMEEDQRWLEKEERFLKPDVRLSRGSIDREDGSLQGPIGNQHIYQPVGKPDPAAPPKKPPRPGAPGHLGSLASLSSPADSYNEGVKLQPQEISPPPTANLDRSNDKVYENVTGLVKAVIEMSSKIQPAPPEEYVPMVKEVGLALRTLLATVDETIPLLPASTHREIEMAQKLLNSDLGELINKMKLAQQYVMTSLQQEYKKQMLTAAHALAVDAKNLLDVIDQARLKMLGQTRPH

The structures appear in SMILES notation.

Targets include FES (UniProt P07332); GSK3A (UniProt P49840); KIAA1804 (UniProt Q5TCX8); MAP3K11 (UniProt Q16584); MAP4K4 (UniProt O95819); MAPK1 (UniProt P28482); PTK2 (UniProt Q05397); SYK (UniProt P43405).
What all share (assay): apparent dissociation constant pKd app (kinobead competition) (-log10(M)); higher = stronger binding
Another test concerns the target T1, AURKA (UniProt O14965).
T1 sequence (whole entry): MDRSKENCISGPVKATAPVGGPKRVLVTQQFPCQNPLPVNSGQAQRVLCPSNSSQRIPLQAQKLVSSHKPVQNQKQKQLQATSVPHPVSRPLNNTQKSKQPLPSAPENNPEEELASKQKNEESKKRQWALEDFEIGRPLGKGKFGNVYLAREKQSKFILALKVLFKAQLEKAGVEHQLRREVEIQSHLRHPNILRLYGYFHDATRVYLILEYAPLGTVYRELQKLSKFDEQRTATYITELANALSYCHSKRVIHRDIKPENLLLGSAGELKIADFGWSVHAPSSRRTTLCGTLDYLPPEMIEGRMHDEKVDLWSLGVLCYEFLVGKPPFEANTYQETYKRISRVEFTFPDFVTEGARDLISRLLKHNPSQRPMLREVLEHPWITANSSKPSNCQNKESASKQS

In a further test the target is T2, JAK3 (UniProt P52333).
T2 sequence (whole entry): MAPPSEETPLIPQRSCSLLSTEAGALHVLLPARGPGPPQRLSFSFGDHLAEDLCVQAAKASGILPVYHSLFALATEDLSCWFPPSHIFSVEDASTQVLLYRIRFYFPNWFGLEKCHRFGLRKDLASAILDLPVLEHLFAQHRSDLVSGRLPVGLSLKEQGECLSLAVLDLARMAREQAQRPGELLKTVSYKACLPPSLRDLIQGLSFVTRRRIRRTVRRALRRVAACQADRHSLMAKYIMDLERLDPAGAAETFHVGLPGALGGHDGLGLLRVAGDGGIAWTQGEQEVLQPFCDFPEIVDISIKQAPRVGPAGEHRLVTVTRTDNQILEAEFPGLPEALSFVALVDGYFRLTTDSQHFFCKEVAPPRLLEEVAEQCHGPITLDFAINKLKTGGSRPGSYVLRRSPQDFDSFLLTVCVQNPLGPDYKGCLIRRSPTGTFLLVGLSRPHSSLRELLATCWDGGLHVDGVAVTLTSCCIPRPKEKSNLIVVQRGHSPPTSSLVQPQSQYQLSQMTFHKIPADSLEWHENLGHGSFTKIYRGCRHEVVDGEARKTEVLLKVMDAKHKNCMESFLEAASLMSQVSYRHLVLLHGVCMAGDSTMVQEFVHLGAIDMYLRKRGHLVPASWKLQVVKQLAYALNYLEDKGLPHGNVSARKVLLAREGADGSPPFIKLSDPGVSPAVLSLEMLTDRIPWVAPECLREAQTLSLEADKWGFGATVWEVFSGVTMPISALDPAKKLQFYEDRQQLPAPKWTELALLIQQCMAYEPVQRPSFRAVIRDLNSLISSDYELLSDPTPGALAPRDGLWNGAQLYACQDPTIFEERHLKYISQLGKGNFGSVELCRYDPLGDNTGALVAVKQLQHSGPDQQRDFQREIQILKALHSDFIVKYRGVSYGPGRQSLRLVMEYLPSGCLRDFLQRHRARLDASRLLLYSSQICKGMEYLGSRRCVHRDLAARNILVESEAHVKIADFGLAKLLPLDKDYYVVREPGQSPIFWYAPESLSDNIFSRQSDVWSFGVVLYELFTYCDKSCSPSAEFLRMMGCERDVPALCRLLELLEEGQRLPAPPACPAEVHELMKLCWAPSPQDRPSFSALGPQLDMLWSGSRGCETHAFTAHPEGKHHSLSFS

The target of a further test is T3, MAP2K4 (UniProt P45985).
T3 sequence (whole entry): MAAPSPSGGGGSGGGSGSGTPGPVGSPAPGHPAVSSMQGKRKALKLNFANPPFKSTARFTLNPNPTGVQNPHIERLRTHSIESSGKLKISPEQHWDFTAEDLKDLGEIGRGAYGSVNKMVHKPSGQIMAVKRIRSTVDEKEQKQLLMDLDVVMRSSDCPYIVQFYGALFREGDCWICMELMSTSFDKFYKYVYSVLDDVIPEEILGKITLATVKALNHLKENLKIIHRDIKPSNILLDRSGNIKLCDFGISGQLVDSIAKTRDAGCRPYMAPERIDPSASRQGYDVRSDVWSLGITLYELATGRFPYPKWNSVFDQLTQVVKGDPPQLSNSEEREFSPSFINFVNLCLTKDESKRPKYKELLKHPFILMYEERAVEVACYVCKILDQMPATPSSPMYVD

`NC(=O)c1cccc2cn(-c3ccc([C@@H]4CCCNC4)cc3)nc12` [Niraparib]: the “apparent dissociation constant pKd app (-log10)” value at AURKA is less than 4.9; at FES, less than 4.7; at GSK3A, less than 4.8; on JAK3 it was less than 4.6; at KIAA1804, less than 4.6; at MAP2K4, less than 4.6. Besides, the “apparent dissociation constant pKd app (-log10)” value at MAP3K11 was less than 4.7; on MAP4K4, less than 4.6; on MAPK1 it was less than 4.6; at PTK2, less than 4.8; on SYK, less than 4.6.
For `Cn1ncnc1[C@H]1c2n[nH]c(=O)c3cc(F)cc(c23)N[C@@H]1c1ccc(F)cc1` [Talazoparib], the “apparent dissociation constant pKd app (-log10)” value is less than 4.9 at AURKA; less than 4.7 at FES; less than 4.8 at GSK3A; less than 4.6 at JAK3; less than 4.6 on KIAA1804; less than 4.6 at MAP2K4. Moreover, the “apparent dissociation constant pKd app (-log10)” value at MAP3K11 is less than 4.7; on MAP4K4 it was less than 4.6; on MAPK1, less than 4.6; on PTK2 it was less than 4.8; at SYK it was less than 4.6.
Consider `O=C(c1cc(Cc2n[nH]c(=O)c3ccccc23)ccc1F)N1CCN(C(=O)C2CC2)CC1` [Olaparib], for which the “apparent dissociation constant pKd app (-log10)” value at AURKA is less than 4.9; at FES it was less than 4.7; on GSK3A, less than 4.8; on JAK3, less than 4.6; on KIAA1804, less than 4.6; at MAP2K4, less than 4.6. In addition, the “apparent dissociation constant pKd app (-log10)” value was less than 4.7 on MAP3K11; less than 4.6 on MAP4K4; less than 4.6 at MAPK1; less than 4.8 at PTK2; less than 4.6 at SYK.
